Here are results for 1 compound from ChEMBL document CHEMBL4602617, “Discovery and optimization of heteroaryl piperazines as potent and selective PI3Kδ inhibitors” (Bioorg Med Chem Lett, 2020).

Structures are written as SMILES.

For test [1], the species on record is Homo sapiens. Kind of test: Selectivity index, ratio IC50 for inhibition of recombinant human N-terminal His6-tagged full-length p120gamma expressed in Sf21 insect cells to ratio IC50 for inhibition of recombinant human full-length N-terminal GST-tagged p110delta/untagged full-length p85alpha expressed in baculovirus infected Sf21 cells.
The species entered for test [2] is Homo sapiens. Kind of test: Selectivity index, ratio IC50 for inhibition of recombinant human full-length N-terminal His6-tagged p110alpha/untagged full-length p85alpha expressed in baculovirus infected Sf21 cells to ratio IC50 for inhibition of recombinant human full-length N-terminal GST-tagged p110delta/untagged full-length p85alpha expressed in baculovirus infected Sf21 cells.

The species named for test [3] is Homo sapiens. Put plainly: Selectivity index, ratio IC50 for inhibition of recombinant human full-length N-terminal His6-tagged p110beta/untagged full-length p85alpha expressed in baculovirus infected Sf21 cells to ratio IC50 for inhibition of recombinant human full-length N-terminal GST-tagged p110delta/untagged full-length p85alpha expressed in baculovirus infected Sf21 cells.

As for `Cn1cc(-c2ncc(C#N)c(N3C[C@@H]4C[C@H]3CN4CC3CC3)n2)cn1`, the values for the Ratio IC50 in test [1], in test [2] and in test [3] were 9, greater than 9 and 9, respectively.
